Measurements as given in US20110236822A1, “METHOD OF TREATING SEASONED DEVELOPER SOLUTION” (priority 2010, published 2011).

Experiments:
[1] = Treatment of IR dye with oxidative and reducing reagents to degrade the dye (TABLE I); type: physicochemical
[2] = Attempt to precipitate the anionic chromophore of IR Dye I as insoluble salts; type: physicochemical; conditions: IR Dye I 0.3% in methanol; 3% solution of compound in water

Row | Substance | Change Noticed [1] | precipitation of IR Dye I [2]
1 | Ammonium thiosulfate | Dye bleached pink | –
2 | Cl-Peroxy benzoic acid | Dye bleached pink | –
3 | Manganous nitrate | Black | –
4 | barium chloride | – | None of these compounds precipitated IR Dye I
